## Ab-91 heavy chain CDR variants: yeast mating affinities

Target peptide (SARS-CoV-2 spike, HR2 region): PDVDLGDISGINAS

Each scFv is VL, the linker GGGGSGGGGSGGGGS, VH, as in the parent Ab-91, and differs from it in the CDRs of the heavy chain only.
VL: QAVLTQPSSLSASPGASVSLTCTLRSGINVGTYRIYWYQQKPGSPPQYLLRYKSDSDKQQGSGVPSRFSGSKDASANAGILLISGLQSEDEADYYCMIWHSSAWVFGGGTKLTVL
VH: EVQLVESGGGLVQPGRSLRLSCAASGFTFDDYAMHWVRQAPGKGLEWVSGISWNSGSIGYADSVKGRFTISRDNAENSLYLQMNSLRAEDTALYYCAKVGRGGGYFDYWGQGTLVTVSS

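Variants in AAYL51 differ from the parent at up to three CDR positions; double and triple changes were sampled at random. The scFvs were displayed on barcoded MATa yeast, the peptide on MATalpha yeast. Binding brings cells together so that they mate, and sequencing counts the barcode pairs among the diploids. Scores were corrected for input abundance and mapped to Kd with protein pairs of known affinity run in the same pool. Each pool was mated in three replicate cultures.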

The parent's heavy chain CDRs are GFTFDDYAMH, GISWNSGSIGYADSVK, VGRGGGYFDY; each variant's own CDRs replace them letter for letter. Values are log10 of the apparent Kd in nM; lower means stronger binding. The mean shown is taken over the replicates in which the pair was detected. "nd" means that the variant was in the library but no mating with the target was seen in any replicate; the authors take this as a sign of poor binding, and no number exists. Empty control strains, which show no peptide, gave a signal in 21% of pairings with library AAYL51; the median was 4.54 and 95% of these signals were weaker than 3.26. No background was subtracted.

CDR-H1	CDR-H2	CDR-H3	mean log10 Kd (nM)	replicates with signal
GFTFDDYAMH	GISWNSGSIGYADSVK	VYRGGGQFDY	0.78	3 of 3
GFTFDDYQMS	GISWNSGSHGYADSVK	VGRGGGYFDY	nd	0 of 3
GFTFDDYATH	GISWNSGSIGYADSVT	VKRGGGYFDY	nd	0 of 3
GFTFDDYAMH	GIGWNSGSIGYADSDK	VARGGGYFDY	5.55	3 of 3
GFTFDDYAMH	GCSWNSGSGGYADSVK	VGRGGGIFDY	nd	0 of 3
GFCFDDYAMH	GQSWNSGSIGYADSVK	VGRGIGYFDY	4.46	1 of 3
GFTFDDYAMH	GISWNSGSIGYARSVK	VGRGGQYFQY	4.84	2 of 3
GFTFDDYAMH	GISWNSGSIGYCDSNK	VGRGLGYFDY	3.84	2 of 3
GFTFDDYAMH	GISWNSGSKGMADSKK	VGRGGGYFDY	4.49	1 of 3
GFTFDDYAMH	GISWNSGSIGYAWSVK	VTRGQGYFDY	2.73	3 of 3
GFTFDDYLMH	GISINSGSIGYADVVK	VGRGGGYFDY	4.00	1 of 3
GDTFDDYAMH	GISWNSGSIGYADAVK	VGRGGGYFRY	4.33	1 of 3
GTAFDDYAMH	GISWSSGSIGYADSVK	VGRGGGYFDY	3.81	1 of 3
GFTFDDYEMH	GFSWNSGSIGYADSVK	VGRGGGYFGY	nd	0 of 3
GFTFDDWAYH	GISWNSGPIGYADSVK	VGRGGGYFDY	nd	0 of 3
GFNFDSYAMY	GISWNSGSIGYADSVK	VGRGGGYFDY	4.69	2 of 3
GFTFDDYAMH	GISWNSGPIGYAFSVK	VGRHGGYFDY	3.81	1 of 3
GFTFDDMAMH	AISWNSGSIGYADSVK	VGRGGGSFDY	nd	0 of 3
GLTFDDYAMH	GISWNSGVKGYADSVK	VGRGGGYFDY	3.41	2 of 3
GFTFDDYAMQ	GISWNSGSIGYADSVK	VGRGAGYFSY	5.06	3 of 3
GFTFDDYAMH	VISLNSGSKGYADSVK	VGRGGGYFDY	5.87	1 of 3
GFTFDDYAMH	GISCNCGSIGYADSVK	VGRGKGYFDY	nd	0 of 3
GFTFDDYAMH	GISWNRGWIGYAESVK	VGRGGGYFDY	4.19	2 of 3
GFTFDDYAMH	GISWCSGSIGYADDVK	VGRGGGYFDY	nd	0 of 3
GFTFFDYAMH	GISWNSGSIHYADSVK	VGRGGGYFVY	5.32	2 of 3
GFHFDDYTMH	GISWNSGSIGYAPSVK	VGRGGGYFDY	4.93	2 of 3
GNTFDDYAMH	GIAWNSGSIHYADSVK	VGRGGGYFDY	nd	0 of 3

Continued, with the values leading:

mean log10 Kd (nM)	replicates with signal	CDR-H1	CDR-H2	CDR-H3
nd	0 of 3	GFTIDDRAMH	GTSWNSGSIGYADSVK	VGRGGGYFDY
nd	0 of 3	GFTFDDYAMH	GISWNPYSIGYADSVA	VGRGGGYFDY
4.09	1 of 3	GFTFDDYAAH	HISWNSGSIGYAISVK	VGRGGGYFDY
5.04	2 of 3	GFTFDDYAMW	KISWNSGPIGYADSVK	VGRGGGYFDY
3.09	1 of 3	GFTFDDYAMH	SIFWNSGSIGKADSVK	VGRGGGYFDY
4.87	2 of 3	GFTFDDYAMH	GTSWNSGSIGYADSVK	HVRGGGYFDY
nd	0 of 3	GFTWDDYAMH	GISWNSGKIGYADSVK	VNRGGGYFDY
nd	0 of 3	GFTVDDYAMH	GWSWNSGSIGYIDSVK	VGRGGGYFDY
3.87	1 of 3	GFTVDDYAMH	TISWNSGSIGYADSKK	VGRGGGYFDY
1.39	3 of 3	GFTFDDYAMH	GISWNMGSIGYAESVK	VGRGGGYQDY
nd	0 of 3	GFTFDDYAMH	GISFNSGSGGYADQVK	VGRGGGYFDY
nd	0 of 3	EFTFDDYAKH	GIVWNSGSIGYADSVK	VGRGGGYFDY
4.50	1 of 3	GFTFDDYAMH	GISTNSGSIGYADSDK	VGRGGGYFDY
4.00	1 of 3	GFTFDYYAMH	GISKNSGSIGLADSVK	VGRGGGYFDY
nd	0 of 3	GFTFDDYAMH	GILPNSGSCGYADSVK	VGRGGGYFDY
nd	0 of 3	GFTFDDYAKH	GISWNRTSIGYADSVK	VGRGGGYFDY
nd	0 of 3	GFTFDDYAMH	GNSWNSGSIGYADWVK	VGRGGGYFDY
4.99	1 of 3	EFTFDDYAMH	GISWNSGSIGPADSVK	VGRIGGYFDY
5.32	1 of 3	GFTFDDYAMH	GISWNSVFIGYKDSVK	VGRGGGYFDY
2.46	3 of 3	GFTFDDYAMH	GISWNSGSIGYADAVY	VGRGTGYFDY
nd	0 of 3	GFTFDDYAMH	GISWNSGSISYAKSVK	VWRGGGYFDY
5.08	3 of 3	GFTFDDYAMH	GIDWNSGSIGYADSVK	VGRGGMTFDY
5.25	1 of 3	GFTFDCYARH	GISWNSGTIGYADSVK	VGRGGGYFDY
nd	0 of 3	GFTFDDYAMH	CISWNSGSIGYADSVK	VGRGGSYFTY
4.91	2 of 3	GFTFDDYAMH	GIIWNSYLIGYADSVK	VGRGGGYFDY
5.36	3 of 3	GFTFQDYAMH	GISWNEGSIGYADSVK	VDRGGGYFDY
6.13	1 of 3	GFTCDDYAMH	GISWNSGSIGYADSVK	VGRGGGYPDY

The first 7 variants above that were never detected:

CDR-H1	CDR-H2	CDR-H3	mean log10 Kd (nM)	replicates with signal
GFTFDDYQMS	GISWNSGSHGYADSVK	VGRGGGYFDY	nd	0 of 3
GFTFDDYATH	GISWNSGSIGYADSVT	VKRGGGYFDY	nd	0 of 3
GFTFDDYAMH	GCSWNSGSGGYADSVK	VGRGGGIFDY	nd	0 of 3
GFTFDDYEMH	GFSWNSGSIGYADSVK	VGRGGGYFGY	nd	0 of 3
GFTFDDWAYH	GISWNSGPIGYADSVK	VGRGGGYFDY	nd	0 of 3
GFTFDDMAMH	AISWNSGSIGYADSVK	VGRGGGSFDY	nd	0 of 3
GFTFDDYAMH	GISCNCGSIGYADSVK	VGRGKGYFDY	nd	0 of 3

Reference: Engelhart et al. 2022, doi:10.1038/s41597-022-01779-4. File: FLAb, binding data.